# Some results for these compounds are left out of this collection, so the calls shown say nothing about other tests.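 A five-concentration, 48-hour dose response in 96-well plates underlies each endpoint, interpolated linearly between surrounding concentrations. GI50 = concentration required for 50% inhibition of growth. TGI: concentration producing complete growth inhibition.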
# How the values were obtained:
# Assay in all cases: NCI anticancer screen, dose series, 48 h
# KM12 colon = test system: KM12 colon
# HOP-62 NSCLC = test system: HOP-62 NSCLC
# SW-620 colon = test system: SW-620 colon
# MDA-MB-435 = test system: MDA-MB-435
# DU-145 prostate = test system: DU-145 prostate
# SF-268 CNS = test system: SF-268 CNS
# SK-MEL-28 melanoma = test system: SK-MEL-28 melanoma
# HT29 colon = test system: HT29 colon
# MOLT-4 leukemia = test system: MOLT-4 leukemia
# SN12C renal = test system: SN12C renal
# EKVX NSCLC = test system: EKVX NSCLC
# LOX IMVI melanoma = test system: LOX IMVI melanoma
# SK-MEL-2 melanoma = test system: SK-MEL-2 melanoma
# ACHN renal = test system: ACHN renal
# T-47D breast = test system: T-47D breast
# RXF 393 renal = test system: RXF 393 renal
# HL-60(TB) leukemia = test system: HL-60(TB) leukemia
# UO-31 renal = test system: UO-31 renal
# TK-10 renal = test system: TK-10 renal
# PC-3 prostate = test system: PC-3 prostate
# M14 melanoma = test system: M14 melanoma
# SNB-75 CNS = test system: SNB-75 CNS
# HCT-116 colon = test system: HCT-116 colon
# A549 NSCLC = test system: A549 NSCLC
# CCRF-CEM leukemia = test system: CCRF-CEM leukemia
# UACC-257 melanoma = test system: UACC-257 melanoma
# SNB-19 CNS = test system: SNB-19 CNS
# 786-0 renal = test system: 786-0 renal
# UACC-62 melanoma = test system: UACC-62 melanoma
# OVCAR-8 ovarian = test system: OVCAR-8 ovarian
# SK-MEL-5 melanoma = test system: SK-MEL-5 melanoma
# K-562 leukemia = test system: K-562 leukemia
# IGROV1 ovarian = test system: IGROV1 ovarian
# HS 578T breast = test system: HS 578T breast
# MCF7 breast = test system: MCF7 breast
# A498 renal = test system: A498 renal
# NCI-H460 lung = test system: NCI-H460 lung
# SK-OV-3 ovarian = test system: SK-OV-3 ovarian
# RPMI-8226 leukemia = test system: RPMI-8226 leukemia
# MDA-MB-231 breast = test system: MDA-MB-231 breast
# SF-539 CNS = test system: SF-539 CNS
# MDA-N = test system: MDA-N
# HOP-92 NSCLC = test system: HOP-92 NSCLC
# COLO 205 colon = test system: COLO 205 colon
# HCT-15 colon = test system: HCT-15 colon
# HCC-2998 colon = test system: HCC-2998 colon
# U251 CNS = test system: U251 CNS
# NCI/ADR-RES ovarian = test system: NCI/ADR-RES ovarian
# CAKI-1 renal = test system: CAKI-1 renal
# NCI-H23 lung = test system: NCI-H23 lung
# SF-295 CNS = test system: SF-295 CNS
# OVCAR-3 ovarian = test system: OVCAR-3 ovarian
# BT-549 breast = test system: BT-549 breast
# OVCAR-4 ovarian = test system: OVCAR-4 ovarian
# OVCAR-5 ovarian = test system: OVCAR-5 ovarian
smiles,measurement,setting,value
CC#CC(O)(C(=O)OC1CN2CCC1CC2)C(C)C (stereo not given),GI50,KM12 colon,> 100 µM
same,TGI,KM12 colon,> 100 µM
same,GI50,HOP-62 NSCLC,> 100 µM
same,TGI,HOP-62 NSCLC,> 100 µM
same,GI50,SW-620 colon,> 100 µM
same,TGI,SW-620 colon,> 100 µM
same,GI50,MDA-MB-435,> 100 µM
same,TGI,MDA-MB-435,> 100 µM
same,GI50,DU-145 prostate,> 100 µM
same,TGI,DU-145 prostate,> 100 µM
same,GI50,SF-268 CNS,> 100 µM
same,TGI,SF-268 CNS,> 100 µM
same,GI50,SK-MEL-28 melanoma,> 100 µM
same,TGI,SK-MEL-28 melanoma,> 100 µM
same,GI50,HT29 colon,> 100 µM
same,TGI,HT29 colon,> 100 µM
same,GI50,MOLT-4 leukemia,> 100 µM
same,TGI,MOLT-4 leukemia,> 100 µM
same,GI50,SN12C renal,> 100 µM
same,TGI,SN12C renal,> 100 µM
same,GI50,EKVX NSCLC,> 100 µM
same,TGI,EKVX NSCLC,> 100 µM
same,GI50,LOX IMVI melanoma,> 100 µM
same,TGI,LOX IMVI melanoma,> 100 µM
same,GI50,SK-MEL-2 melanoma,> 100 µM
same,TGI,SK-MEL-2 melanoma,> 100 µM
same,GI50,ACHN renal,> 100 µM
same,TGI,ACHN renal,> 100 µM
same,GI50,T-47D breast,> 100 µM
same,TGI,T-47D breast,> 100 µM
same,GI50,RXF 393 renal,> 100 µM
same,TGI,RXF 393 renal,> 100 µM
same,GI50,HL-60(TB) leukemia,> 100 µM
same,TGI,HL-60(TB) leukemia,> 100 µM
same,GI50,UO-31 renal,> 100 µM
same,TGI,UO-31 renal,> 100 µM
same,GI50,TK-10 renal,> 100 µM
same,TGI,TK-10 renal,> 100 µM
same,GI50,PC-3 prostate,> 100 µM
same,TGI,PC-3 prostate,> 100 µM
same,GI50,M14 melanoma,> 100 µM
same,TGI,M14 melanoma,> 100 µM
same,GI50,SNB-75 CNS,> 100 µM
same,TGI,SNB-75 CNS,> 100 µM
same,GI50,HCT-116 colon,> 100 µM
same,TGI,HCT-116 colon,> 100 µM
same,GI50,A549 NSCLC,> 100 µM
same,TGI,A549 NSCLC,> 100 µM
same,GI50,CCRF-CEM leukemia,> 100 µM
same,TGI,CCRF-CEM leukemia,> 100 µM
same,GI50,UACC-257 melanoma,> 100 µM
same,TGI,UACC-257 melanoma,> 100 µM
same,GI50,SNB-19 CNS,> 100 µM
same,TGI,SNB-19 CNS,> 100 µM
same,GI50,786-0 renal,> 100 µM
same,TGI,786-0 renal,> 100 µM
same,GI50,UACC-62 melanoma,> 100 µM
same,TGI,UACC-62 melanoma,> 100 µM
same,GI50,OVCAR-8 ovarian,> 100 µM
same,TGI,OVCAR-8 ovarian,> 100 µM
same,GI50,SK-MEL-5 melanoma,> 100 µM
same,TGI,SK-MEL-5 melanoma,> 100 µM
same,GI50,K-562 leukemia,> 100 µM
same,TGI,K-562 leukemia,> 100 µM
same,GI50,IGROV1 ovarian,> 100 µM
same,TGI,IGROV1 ovarian,> 100 µM
same,GI50,HS 578T breast,54.1 µM
same,TGI,HS 578T breast,> 100 µM
same,GI50,MCF7 breast,> 100 µM
same,TGI,MCF7 breast,> 100 µM
same,GI50,A498 renal,> 100 µM
same,TGI,A498 renal,> 100 µM
same,GI50,NCI-H460 lung,> 100 µM
same,TGI,NCI-H460 lung,> 100 µM
same,GI50,SK-OV-3 ovarian,> 100 µM
same,TGI,SK-OV-3 ovarian,> 100 µM
same,GI50,RPMI-8226 leukemia,> 100 µM
same,TGI,RPMI-8226 leukemia,> 100 µM
same,GI50,MDA-MB-231 breast,> 100 µM
same,TGI,MDA-MB-231 breast,> 100 µM
same,GI50,SF-539 CNS,> 100 µM
same,TGI,SF-539 CNS,> 100 µM
same,GI50,MDA-N,> 100 µM
same,TGI,MDA-N,> 100 µM
same,GI50,HOP-92 NSCLC,> 100 µM
same,TGI,HOP-92 NSCLC,> 100 µM
same,GI50,COLO 205 colon,> 100 µM
same,TGI,COLO 205 colon,> 100 µM
same,GI50,HCT-15 colon,> 100 µM
same,TGI,HCT-15 colon,> 100 µM
same,GI50,HCC-2998 colon,> 100 µM
same,TGI,HCC-2998 colon,> 100 µM
same,GI50,U251 CNS,> 100 µM
same,TGI,U251 CNS,> 100 µM
same,GI50,NCI/ADR-RES ovarian,> 100 µM
same,TGI,NCI/ADR-RES ovarian,> 100 µM
same,GI50,CAKI-1 renal,> 100 µM
same,TGI,CAKI-1 renal,> 100 µM
same,GI50,NCI-H23 lung,> 100 µM
same,TGI,NCI-H23 lung,> 100 µM
same,GI50,SF-295 CNS,> 100 µM
same,TGI,SF-295 CNS,> 100 µM
same,GI50,OVCAR-3 ovarian,> 100 µM
same,TGI,OVCAR-3 ovarian,> 100 µM
same,GI50,BT-549 breast,> 100 µM
same,TGI,BT-549 breast,> 100 µM
same,GI50,OVCAR-4 ovarian,> 100 µM
same,TGI,OVCAR-4 ovarian,> 100 µM
same,GI50,OVCAR-5 ovarian,0.18 µM
same,TGI,OVCAR-5 ovarian,> 100 µM

# From PubChem BioAssay (NCI)
